In IntAct's records for PubMed 24879152:

B1: Glycogen synthase kinase-3 beta (Homo sapiens), P49841 (parent)
chain: MSGRPRTTSFAESCKPVQQPSAFGSMKVSRDKDGSKVTTVVATPGQGPDRPQEVSYTDTKVIGNGSFGVVYQAKLCDSGELVAIKKVLQDKRFKNRELQIMRKLDHCNIVRLRYFFYSSGEKKDEVYLNLVLDYVPETVYRVARHYSRAKQTLPVIYVKLYMYQLFRSLAYIHSFGICHRDIKPQNLLLDPDTAVLKLCDFGSAKQLVRGEPNVSYICSRYYRAPELIFGATDYTSSIDVWSAGCVLAELLLGQPIFPGDSGVDQLVEIIKVLGTPTREQIREMNPNYTEFKFPQIKAHPWTKVFRPRTPPEAIALCSRLLEYTPTARLTPLEACAHSFFDELRDPNVKLPNGRDTPALFNFTTQELSSNPPLATILIPPHARIQAAASTPTNATAASDANTGDRGQTNNAASASASNST
partner: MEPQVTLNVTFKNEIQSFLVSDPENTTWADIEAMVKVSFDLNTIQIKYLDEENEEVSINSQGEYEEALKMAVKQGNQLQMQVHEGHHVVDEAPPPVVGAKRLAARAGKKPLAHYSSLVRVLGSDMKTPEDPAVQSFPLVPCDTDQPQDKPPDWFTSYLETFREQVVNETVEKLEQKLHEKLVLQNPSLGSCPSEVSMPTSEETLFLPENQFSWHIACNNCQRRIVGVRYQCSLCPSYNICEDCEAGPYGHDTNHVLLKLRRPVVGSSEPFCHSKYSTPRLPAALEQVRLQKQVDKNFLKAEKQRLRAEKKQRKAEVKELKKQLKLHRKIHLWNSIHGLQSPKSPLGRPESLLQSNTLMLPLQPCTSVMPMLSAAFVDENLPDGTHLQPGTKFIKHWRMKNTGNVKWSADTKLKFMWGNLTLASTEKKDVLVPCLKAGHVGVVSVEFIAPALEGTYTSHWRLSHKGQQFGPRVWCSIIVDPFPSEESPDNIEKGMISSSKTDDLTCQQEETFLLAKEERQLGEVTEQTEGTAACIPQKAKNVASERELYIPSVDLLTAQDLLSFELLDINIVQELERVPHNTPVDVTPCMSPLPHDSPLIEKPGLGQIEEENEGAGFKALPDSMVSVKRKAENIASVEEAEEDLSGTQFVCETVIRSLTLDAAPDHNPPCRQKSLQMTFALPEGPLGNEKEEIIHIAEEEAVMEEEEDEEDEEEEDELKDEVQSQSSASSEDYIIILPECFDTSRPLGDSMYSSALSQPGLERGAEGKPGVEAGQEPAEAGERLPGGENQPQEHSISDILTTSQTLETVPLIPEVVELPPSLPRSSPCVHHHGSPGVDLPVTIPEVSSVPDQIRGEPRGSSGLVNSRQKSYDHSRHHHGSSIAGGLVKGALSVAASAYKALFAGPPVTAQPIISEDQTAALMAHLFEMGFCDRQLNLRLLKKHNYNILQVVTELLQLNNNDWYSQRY

Variants of: B1
Settings: with nbr1_human NBR1, Q14596

Row | effect of a mutation on the interaction | Variant
1 | with no effect | S9A
2 | disrupting interaction strength | K85A
